Test results published in PMC5358098 (ACS chemical neuroscience, 2016).

Chains of the proteins cited; added tags and fusions are not shown.
UniProt P47746, whole entry: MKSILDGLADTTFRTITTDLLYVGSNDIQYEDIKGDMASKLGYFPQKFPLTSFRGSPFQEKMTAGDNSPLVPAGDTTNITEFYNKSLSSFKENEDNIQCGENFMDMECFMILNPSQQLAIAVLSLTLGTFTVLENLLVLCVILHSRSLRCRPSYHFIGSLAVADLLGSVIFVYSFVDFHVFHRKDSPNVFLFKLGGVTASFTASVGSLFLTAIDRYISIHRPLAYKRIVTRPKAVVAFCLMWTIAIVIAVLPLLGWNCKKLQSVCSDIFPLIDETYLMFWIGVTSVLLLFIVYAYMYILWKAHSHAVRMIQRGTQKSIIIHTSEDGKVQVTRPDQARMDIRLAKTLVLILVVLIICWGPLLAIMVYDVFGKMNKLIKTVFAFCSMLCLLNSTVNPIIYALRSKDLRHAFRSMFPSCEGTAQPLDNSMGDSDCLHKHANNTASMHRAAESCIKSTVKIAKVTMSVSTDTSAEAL

Key:
[1] = test system: hCB1R; assay: Operational model bias analysis, HEK293A cells; type: cell-based, human; details: reference 2-AG + GAT100
[2] = target: CB1R (Mus musculus, UniProt P47746); assay: Operational model bias analysis, Neuro2a cells; type: cell-based; details: reference 2-AG + GAT100
[3] = 500 nM 2-AG + 1 nM-10 μM allosteric modulator
[4] = 500 nM AEA + 1 nM-10 μM allosteric modulator
[5] = 500 nM CP55,940 + 1 nM-10 μM allosteric modulator

In the case of `CCc1c(C(=O)NCCc2ccc(N3CCCCC3)cc2)[nH]c2ccc(N=C=S)cc12` [GAT100, 3-ethyl-5-isothiocyanato-N-(4-(piperidin-1-yl)phenethyl)-1H-indole-2-carboxamide], the “ΔΔlog R β-arrestin1/pERK1/2” value [1, 3] is reported as 0.0 ± 0.1, the “ΔΔlog R β-arrestin1/pERK1/2” value [1, 4] is reported as “–0.6 ± 0.1” and the “ΔΔlog R β-arrestin1/pERK1/2” value [1, 5] is reported as “–0.2 ± 0.1”. The “ΔΔlog R β-arrestin1/pERK1/2” value [2, 3] was 0.0 ± 0.1, the “ΔΔlog R β-arrestin1/pERK1/2” value [2, 4] was 0.9 ± 0.1 and the “ΔΔlog R β-arrestin1/pERK1/2” value [2, 5] was 1.0 ± 0.1.

With `CCc1c(C(=O)NCCc2ccc(N3CCCCC3)cc2)[nH]c2ccc(Cl)cc12` [Org27569, 5-chloro-3-ethyl-N-(4-(piperidin-1-yl)phenethyl)-1H-indole-2-carboxamide] the “ΔΔlog R β-arrestin1/pERK1/2” value [1, 3] was “–1.1 ± 0.1”, the “ΔΔlog R β-arrestin1/pERK1/2” value [1, 4] was 1.2 ± 0.8 and the “ΔΔlog R β-arrestin1/pERK1/2” value [1, 5] was 0.6 ± 0.4. For the same compound, the “ΔΔlog R β-arrestin1/pERK1/2” value [2, 3] was 0.5 ± 0.2, the “ΔΔlog R β-arrestin1/pERK1/2” value [2, 4] was 0.2 ± 0.2 and the “ΔΔlog R β-arrestin1/pERK1/2” value [2, 5] was 0.5 ± 0.9.
